# Several values for one entry are separate records, joined by “and”; a condition that tells them apart may be missing. Identical values can stand only once. Only a part is listed here, and it is no random draw. Activity calls are given as the source filed them.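 Rule for the calls: active = activation, scaled between plate controls, above about 75% (limit read from the data); inactive = activation under that limit.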
# Assay: inhibitors of zVAD-triggered necroptosis, primary screen, L929 cells (AID 1377);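 note: 0% = zVAD with DMSO and 100% = DMSO alone without zVAD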
# Conditions: ATP luminescence, 24 h, at 10 µM, active compounds read high; with zVAD 60 µM unless noted
row,Compound,viability rescue
1,C[C@H]1OP(=O)(Oc2ccccc2)[C@H](O)[C@H](O)[C@H]1N=[N+]=[N-] (stereo not given in full),inactive: -0.48%
2,O=P(Nc1nc2ccccc2s1)(c1ccccc1)c1ccccc1,inactive: 0.35%
3,O=P(Nc1ccccn1)(c1ccc(Br)cc1)c1ccc(Br)cc1,inactive: 2.2%
4,O=C(OC1CN2CCC1CC2)c1cccc(Cl)c1 (stereo not given),inactive: 1.58% [with zVAD 20 µM]
5,Nc1ccc([As](=O)(O)c2ccc([N+](=O)[O-])cc2)cc1,inactive: 0.79%
6,C(Cc1nn[nH]n1)Cc1nn[nH]n1,inactive: 0.17%
7,O=[As](O)(c1ccccc1)c1ccc(O)cc1,inactive: -0.22%
8,O=[N+]([O-])c1ncn(CCn2cnc([N+](=O)[O-])n2)n1,inactive: -0.17%
9,c1nnnn1CCn1cnnn1,inactive: 0.04% [with zVAD 20 µM]
10,O=P(Nc1nccs1)(c1ccccc1)c1ccccc1,inactive: -0.09% [with zVAD 20 µM]
11,CC(C)C(=O)NC(Sc1ccccc1)C(Cl)(Cl)Cl (stereo not given),inactive: 0.52%
12,CC(C)(C)C(=O)NC(Sc1ccccc1)C(Cl)(Cl)Cl (stereo not given),inactive: 0.82%
13,CCOc1ccc(C2=NCC(CBr)S2)cc1 (stereo not given),inactive: -0.43%
14,O=P1(Nc2nc3ccc(Cl)cc3s2)COc2ccccc2O1 (stereo not given),inactive: 2.74% [with zVAD 20 µM]
15,CC(=O)Nc1ccc(Oc2c([N+](=O)[O-])cc([N+](=O)[O-])cc2[N+](=O)[O-])cc1,inactive: 1.21%
16,CC(=O)Nc1ccc([As](=O)(O)O)c(O)c1,inactive: 1.69%
17,C[C@@H]1C=CCP(=O)(Oc2ccccc2)O1 (stereo not given in full),inactive: 0.41%
18,C[C@H]1OP(=O)(Oc2ccccc2)C[C@@H]2O[C@@H]21 (stereo not given in full),inactive: -0.36%
19,CCOC(=O)NC(Sc1ccccc1)C(Cl)(Cl)Cl (stereo not given),inactive: 0.28% [with zVAD 20 µM]
20,Cc1ccc(NP(=O)(Oc2cccc(C)c2)Oc2cccc(C)c2)nc1,inactive: 0.57%
21,c1ccc(-c2nn[nH]n2)c(-c2nn[nH]n2)c1,inactive: 0.87%
22,O=C(NC1CCS(=O)(=O)C1)NP(=S)(Oc1ccccc1)Oc1ccccc1 (stereo not given),inactive: 2.2%
23,CCNC(=S)/N=C(\N)N[N+](=O)[O-],inactive: 1.15%
24,CN(C)C(=O)Oc1noc2ccccc12,inactive: 0.07%

row,Compound,viability rescue
1,O=c1c2cc([N+](=O)[O-])ccc2[nH]c2c([N+](=O)[O-])cc([N+](=O)[O-])cc12,inactive: 59.8%
2,Cc1ccccc1OP(=O)(Nc1ccccn1)Oc1ccccc1C,inactive: -0.33%
3,CCC(=O)N1C2C3N(C(=O)CC)C1C1N(C(=O)CC)C(C(N1C(=O)CC)N3C(=O)CC)N2C(=O)CC,inactive: -0.16% [with zVAD 20 µM]
4,Cc1ccc(OP(=O)(Nc2ccccn2)Oc2ccc(C)cc2)cc1,inactive: -0.39%
5,COC(=O)c1cc2c(s1)N=C(c1ccccc1)N(C)P2(=O)N1CCOCC1 (stereo not given),inactive: -0.00098% [with zVAD 20 µM]
6,Cc1ccc(NP(=O)(Oc2ccccc2F)Oc2ccccc2F)nc1,inactive: 0.85%
7,CCOP(=O)(Nc1ccccc1)OCC,inactive: -0.68% and inactive: -1.08%
8,Cc1cc(SC(NC(=O)c2ccc(F)cc2)C(Cl)(Cl)Cl)ncn1 (stereo not given),inactive: 0.38% [with zVAD 20 µM]
9,O=P(Nc1nc2ccc(Cl)cc2s1)(c1ccccc1)c1ccccc1,inactive: 1.48%
10,O=C(O)c1ccccc1[As](=O)(O)O,inactive: 1.2%
11,CC(=O)Nc1ccc([As](=O)(O)O)cc1,inactive: 0.03%
12,Nc1cccc2ccc([As](=O)(O)O)cc12,inactive: 0.55%
13,CCN(N=Nc1nonc1N)c1nonc1N,inactive: -0.05%
14,Clc1ccc(Cl)c(NC2=NCC(CBr)S2)c1 (stereo not given),inactive: -0.9%
15,CN1CCCC(OC(=O)C(c2ccccc2)c2ccccc2)C1 (stereo not given),inactive: -0.22% [with zVAD 20 µM]
16,Cc1ccc(OP(=O)(Nc2nccs2)Oc2ccc(C)cc2)cc1,inactive: -0.11%
17,COc1ccccc1OP(=O)(Nc1ccc(C)cn1)Oc1ccccc1OC,inactive: 1.77%
18,Cc1ccc(N/C(=N/P(=O)(N2CCOCC2)N2CCOCC2)N2CCOCC2)cc1,inactive: 3.33%
19,NC(=O)c1cc([N+](=O)[O-])cc([N+](=O)[O-])c1N,inactive: 61%
20,Cc1c2non([O-])c-2c(C)[n+](=O)[n+]1[O-],inactive: -0.75% [with zVAD 20 µM]
21,O=C(NC(Sc1ccncn1)C(Cl)(Cl)Cl)c1ccccc1 (stereo not given),inactive: 1.28%
22,Oc1ccccc1CNc1ccccn1,inactive: 1.75%
23,CC(C)CC(=O)NC(Sc1ccc(Cl)cc1)C(Cl)(Cl)Cl (stereo not given),inactive: -0.03% [with zVAD 20 µM]
24,Nc1cc(N)c2nonc2c1[N+](=O)[O-],inactive: 0.24%

row,Compound,viability rescue
1,O=[N+]([O-])c1cc([N+](=O)[O-])c(CCNc2ccccc2)c([N+](=O)[O-])c1,inactive: 1.61%
2,CCc1nc2c(n1)c1c(non1O)c1c2no[n+]1[O-],inactive: 28.5% [with zVAD 20 µM]
3,Cc1ccc(NP(=O)(Oc2ccccc2)Oc2ccccc2)nc1,inactive: 3.42%
4,CC(=O)N1C2C3N(C(C)=O)C1C1N(C(C)=O)C(C(N1C(C)=O)N3C(C)=O)N2C(C)=O,inactive: -0.14% [with zVAD 20 µM]
5,O=[N+]([O-])c1cccc2n[nH]nc12,inactive: 3.66%
6,COc1ccc(C2=NCC(CBr)S2)cc1 (stereo not given),inactive: 1.26%
7,CC1CCN(C(=O)Oc2c(Cl)cc(Cl)c3cccnc23)CC1,inactive: -0.41% [with zVAD 20 µM]
8,CN(C)C(=O)OCCc1n(C)cc[n+]1C,inactive: -0.32%
9,CC(C)=N/N=C(\N)N[N+](=O)[O-],inactive: -0.5%
10,CCN(/C(=N/P(=O)(N1CCOCC1)N1CCOCC1)N1CCOCC1)c1ccc(OC)cc1,inactive: 0.59%
11,C[N+]1=C2C=CC=CC=C2SC12C([N+](=O)[O-])=CC([N+](=O)[O-])=C[C-]2[N+](=O)[O-] (stereo not given),inactive: -0.82%
12,Nc1ccc([As](=O)(O)c2ccc(N)cc2)cc1,inactive: -0.03%
13,O=C(Nc1cc([As](=O)(O)O)ccc1O)c1ccccc1,inactive: 1.33%
14,O=C(O)CNc1ccc([As](=O)(O)O)cc1,inactive: 0.92%
15,O=[N+]([O-])c1cccc(NC2=NCC(CBr)S2)c1 (stereo not given),inactive: -0.57%
16,O=[N+]([O-])c1ncn(CCn2ncnc2[N+](=O)[O-])n1,inactive: 0.6%
17,CC(C)(C)C(=O)NC(Sc1ccncn1)C(Cl)(Cl)Cl (stereo not given),inactive: 0.46%
18,Cc1cc(SC(NC(=O)c2ccccc2)C(Cl)(Cl)Cl)nc(C(C)C)n1 (stereo not given),inactive: 0.89% [with zVAD 20 µM]
19,CCOC(=O)Nc1ccc([As](=O)(O)O)c(O)c1,inactive: 0.58%
20,Cc1cc(SC(NC=O)C(Cl)(Cl)Cl)ncn1 (stereo not given),inactive: 1%
21,O=P(Nc1ccccn1)(c1cccc2ccccc12)c1cccc2ccccc12,inactive: 0.79%
22,O=[N+]([O-])c1ccc(Nc2ccc(Oc3ccc([N+](=O)[O-])cc3[N+](=O)[O-])cc2)c([N+](=O)[O-])c1,inactive: -1.85%
23,CCOC(=O)Nc1cccc([As](=O)(O)O)c1,inactive: 0.65%
24,O=C(COc1ccccc1)OC1CN2CCC1CC2 (stereo not given),inactive: -0.32% [with zVAD 20 µM]

row,Compound,viability rescue
1,COP1(=S)c2c(C)nn(CCC#N)c2N=C(c2ccc(F)cc2)N1C (stereo not given),inactive: -0.36% [with zVAD 20 µM]
2,CCC(C)N(CC(C)C)C(=S)SC(NC(C)=O)C(Cl)(Cl)Cl (stereo not given),inactive: -0.63%
3,CCOC(=O)c1ccc(NC(=O)C(C)(CCl)SC)cc1 (stereo not given),inactive: -0.46%
4,COc1cc(I)ccc1[As](=O)(O)O,inactive: -1.33%
5,COc1ccc2nc(NP(=O)(c3ccccc3)c3ccccc3)sc2c1,inactive: 0.98%
6,Cc1c2c(nc3ccccc13)SC(C(Cl)Cl)C2 (stereo not given),inactive: 0.92%
7,Cc1cc(=O)[nH]c(N[N+](=O)[O-])n1,inactive: -0.09%
8,O=C(OC1CN2CCC1CC2)C12CC3CC(CC(C3)C1)C2 (stereo not given),inactive: 0.76% [with zVAD 20 µM]
9,COc1ccc(N/C(=N/P(=O)(N2CCOCC2)N2CCOCC2)N2CCOCC2)cc1,inactive: 0.51%
10,Cc1ccc(OP(=O)(Nc2ccc([N+](=O)[O-])cn2)Oc2ccc(C)cc2)cc1,inactive: 0.56%
11,Cc1ccc2nc3c(c(C)c2c1)CC(C(Cl)Cl)S3 (stereo not given),inactive: 1.07%
12,O=[As](O)(c1ccc(O)cc1)c1ccccc1O,inactive: 0.2%
13,C[As](=O)(O)c1cccc(C(=O)O)c1,inactive: 1.37%
14,O=[N+]([O-])c1cc([N+](=O)[O-])c(-c2ccn[nH]2)s1,inactive: 5.03%
15,CCN(CC)C(=S)SC(NC=O)C(Cl)(Cl)Cl (stereo not given),inactive: -0.42% [with zVAD 20 µM]
16,CC(C)NC(=O)NP(=O)(Oc1ccccc1)Oc1ccccc1,inactive: 1.47%
17,ClCCSc1nnc(-c2cccnc2)o1,inactive: -0.18% [with zVAD 20 µM]
18,CC(C)c1ccc(OP(=O)(Nc2ccccn2)Oc2ccccc2F)cc1 (stereo not given),inactive: 0.25%
19,O=C(O)COc1ccc([As](=O)(O)O)cc1[N+](=O)[O-],inactive: 0.88%
20,Nc1ccccc1[As](=O)(O)c1ccccc1,inactive: -0.18%
21,O=P(Nc1nccs1)(c1ccccc1)c1nc2ccccc2s1 (stereo not given),inactive: -0.65%
22,O=P(Nc1nccs1)(Oc1ccccc1)Oc1ccccc1,inactive: 0.36%
23,CCOP1(=S)c2c(C)nn(CCC#N)c2N=C(c2ccccc2F)N1C (stereo not given),inactive: -0.32% [with zVAD 20 µM]
